For test [1], the system named is LS1034 cells. The experiment in a line: Flow cell affinity of ADCs, LS1034. It is filed as binding, human. To be noted: flow cytometry.
Test [2] has as its system human colon cancer SW480 cell lines. Briefly: In-vivo efficacy in SW480 CDX models. To be noted: 5 mg/kg, i.v., QW*2, SW480 CDX. Also noted: species or system mouse.
Test [3] concerns NCI-H358 cells. The experiment in a line: In-vitro killing activity Test 1 (CCK8), NCI-H358. The class given is cell-based, human. To be noted: 5 days, read-out: EC50 of ADC killing (nM) NCI-H358.
The target of test [4] is T1, h.cMet-ECD-His (Homo sapiens, UniProt P08581).
T1 construct: a human cMet ectodomain recombinant protein (Human HGF R/c-MET Protein, His Tag); purchased Acrobiosystems Co., Ltd. / ACRO Biosystems MET-H5227
T1 sequence (P08581 25-932 limits assumed): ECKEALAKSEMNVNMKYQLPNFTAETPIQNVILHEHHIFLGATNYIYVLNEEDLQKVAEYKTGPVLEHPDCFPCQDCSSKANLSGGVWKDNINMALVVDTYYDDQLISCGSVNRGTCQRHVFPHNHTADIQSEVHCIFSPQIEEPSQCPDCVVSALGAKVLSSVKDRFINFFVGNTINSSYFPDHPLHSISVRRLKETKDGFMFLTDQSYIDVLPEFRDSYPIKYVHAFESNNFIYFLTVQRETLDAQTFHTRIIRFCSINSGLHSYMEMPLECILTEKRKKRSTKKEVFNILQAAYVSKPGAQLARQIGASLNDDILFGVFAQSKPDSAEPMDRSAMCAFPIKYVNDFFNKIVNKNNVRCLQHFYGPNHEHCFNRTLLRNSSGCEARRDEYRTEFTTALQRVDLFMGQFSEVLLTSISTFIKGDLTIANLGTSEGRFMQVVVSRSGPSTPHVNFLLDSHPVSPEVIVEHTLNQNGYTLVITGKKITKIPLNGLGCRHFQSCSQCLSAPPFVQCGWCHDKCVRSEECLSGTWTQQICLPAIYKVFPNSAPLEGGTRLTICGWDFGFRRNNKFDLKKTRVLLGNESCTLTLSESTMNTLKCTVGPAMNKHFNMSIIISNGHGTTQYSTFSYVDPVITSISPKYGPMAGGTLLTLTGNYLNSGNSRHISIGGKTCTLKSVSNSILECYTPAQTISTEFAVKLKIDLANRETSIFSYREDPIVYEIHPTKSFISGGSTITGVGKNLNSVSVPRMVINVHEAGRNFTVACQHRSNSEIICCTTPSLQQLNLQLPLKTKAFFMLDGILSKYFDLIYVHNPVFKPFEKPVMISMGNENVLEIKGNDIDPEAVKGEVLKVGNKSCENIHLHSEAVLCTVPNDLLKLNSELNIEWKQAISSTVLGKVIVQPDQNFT
Briefly: ELISA protein affinity of cMET antibodies before and after conjugating into ADCs. It is filed as binding.

Test [5] has as its system human non-small cell lung cancer NCI-H358 cells. The experiment in a line: In-vivo efficacy in NCI-H358 CDX models (Test 1). Also noted: species or system mouse. The settings on record: i.v., QW*3, NCI-H358 CDX.
For test [6], the system named is human colorectal adenocarcinoma NCI-H716 cell lines. Briefly: In-vivo efficacy in NCI-H716 CDX models. Also noted: species or system mouse. To be noted: i.v., QW*3, NCI-H716 CDX.
The test system of test [7] is LS1034 cells. Briefly: In-vitro killing activity Test 1 (CCK8), LS1034. It is filed as cell-based, human. To be noted: 5 days, read-out: EC50 of ADC killing (nM) LS1034.
Test [8] concerns SW480 cells. Briefly: In-vitro killing activity Test 1 (CCK8), SW480. To be noted: 7 days, read-out: EC50 of ADC killing (nM) SW480. The class given is cell-based, human.
The test system of test [9] is NCI-H358 cells. The experiment in a line: Flow cell affinity of ADCs, NCI-H358. To be noted: flow cytometry. The class given is binding, human.
The subject of test [10] is NCI-H716 cells. Briefly: In-vitro killing activity Test 1 (CCK8), NCI-H716. It is filed as cell-based, human. To be noted: 7 days, read-out: EC50 of ADC killing (nM) NCI-H716.
Test [11] has as its system NCI-H69 cells. Briefly: Flow cell affinity of ADCs, NCI-H69. The class given is binding, human. To be noted: flow cytometry.

B1: 55A10G6-HZ-B81 (DAR8) (conjugate)
heavy: QIQLVQSGAEVKKPGASVKVSCKASGYTFTDYYLNWVRQAPGQGLEWMGWIFPGSGNTKYSQKFQGRVTLTVDTSASTAYMELSSLRSEDTAVYYCAGGDYGGFTYWGQGTLVTVSSASTKGPSVFPLAPSSKSTSGGTAALGCLVKDYFPEPVTVSWNSGALTSGVHTFPAVLQSSGLYSLSSVVTVPSSSLGTQTYICNVNHKPSNTKVDKKV[human IgG1 Fc omitted here]
light: DIQMTQSPSSLSASVGDRVTITCGASENIYGALNWYQQKPGKAPKLLIYGATNLAAGVPSRFSGSGSGRDFTLTISSLQPEDFATYYCQNVLSEPLTFGQGTKVEIKRTVAAPSVFIFPPSDEQLKSGTASVVCLLNNFYPREAKVQWKVDNALQSGNSQESVTEQDSKDSTYSLSSTLTLSKADYEKHKVYACEVTHQGLSSPVTKSFNRGEC
For B1, in [1], the “LS1034 Maximum signal value” worked out at 9601. The “TGI (%) on Day 15” value in [2] is recorded as 93.7%. Besides, the EC50 is 145 nM in test [3]; 3.923 ng/mL in [4]; 101 nM in test [7]; 87.5 nM in test [8]; 4.66 nM in [10]. For the same molecule, the “TGI (%) on Day 14” value is 93.8% in test [5] (1 mg/kg), 93.9% in test [5] (3 mg/kg), 7.6% in test [6] (0.3 mg/kg) and 58.6% in test [6] (1 mg/kg). Further, the “NCI-H358 Maximum signal value” in test [9] turned out to be 46313. For the same molecule, the “NCI-H69 Maximum signal value” in test [11] was found to be 10484.

Source of the values: patent US20260216354A1, “ANTI-CMET ANTIBODY, ANTIBODY-DRUG CONJUGATE, AND PREPARATION METHOD THEREFOR AND USE THEREOF” (MEDILINK THERAPEUTICS (SUZHOU) CO., LTD., priority 2022, published 2026).
